Chains of the proteins cited; added tags and fusions are not shown. Lines headed by an entry give the natural chain unless they say otherwise; changes in a name come on top.
UniProt Q99572: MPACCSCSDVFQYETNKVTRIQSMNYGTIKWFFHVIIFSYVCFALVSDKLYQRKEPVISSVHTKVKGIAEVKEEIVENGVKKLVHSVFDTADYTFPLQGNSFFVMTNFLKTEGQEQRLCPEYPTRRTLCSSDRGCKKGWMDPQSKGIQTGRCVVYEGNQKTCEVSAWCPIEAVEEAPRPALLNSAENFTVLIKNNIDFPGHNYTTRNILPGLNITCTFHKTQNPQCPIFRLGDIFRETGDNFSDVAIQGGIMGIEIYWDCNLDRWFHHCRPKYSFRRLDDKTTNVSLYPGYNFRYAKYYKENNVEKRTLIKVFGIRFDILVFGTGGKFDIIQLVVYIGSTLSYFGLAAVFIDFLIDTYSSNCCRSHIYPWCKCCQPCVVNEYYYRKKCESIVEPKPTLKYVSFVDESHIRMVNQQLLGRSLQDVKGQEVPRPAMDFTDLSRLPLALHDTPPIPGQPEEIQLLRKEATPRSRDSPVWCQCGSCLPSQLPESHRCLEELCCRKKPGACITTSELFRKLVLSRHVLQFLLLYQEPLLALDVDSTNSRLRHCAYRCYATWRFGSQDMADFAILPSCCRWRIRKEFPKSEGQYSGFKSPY

In BindingDB's records for patent US10053463 (Janssen Pharmaceutica NV, 2018):

Columns and labels:
P2X purinoceptor 7 [1] = target: T1, P2X purinoceptor 7 (Homo sapiens, UniProt Q99572); assay: P2X7 FLIPR Assay; settings: pH 7.4
Method: 1321N1 cells expressing the recombinant human or rat P2X7 channel was cultured in HyQ DME/(HyClone/Dulbecco's Modified Eagle Medium) high glucose supplemented with 10% Fetal Bovine Serum (FBS) and appropriate selection marker. Cells were seeded at a density of 25000 cells/well (96-well clear bottom black walled plates) in 100 μl volume/well. On the day of the experiment, cell plates were washed with assay buffer, containing (in mM): 130 NaCl, 2 KCl, 1 CaCl2, 1 MgCl2, 10 HEPES, 5 glucose; pH 7.40 and 300 mOs. After the wash, cells were loaded with the Calcium-4 dye (Molecular Device) and incubated in the dark for 60 minutes. Test compounds were prepared at 250× the test concentration in neat DMSO. Intermediate 96-well compound plates were prepared by transferring 1.2 μL of the compound into 300 μL of assay buffer. A further 3× dilution occurred when transferring 50 μL/well of the compound plate to 100 μL/well in the cell plate. Cells were incubated with test compounds and dye for 30 minutes. […] The fluorescence change was measured 180 seconds after adding the agonist. Peak fluorescence was plotted as a function of BzATP concentration using Origin 7 software.

P2X purinoceptor 7 [2] = target: T1, P2X purinoceptor 7; assay: P2X7 Radioligand Binding
Method: human or rat P2X7-1321N1 cells were collected and frozen @−80° C. On the day of the experiment, cell membrane preparations were made according to standard published methods. […] The compound can be prepared as described in the literature. […] The assay was terminated by filtration (GF/B filters pre-soaked with 0.3% PEI) and washed with washing buffer (Tris-HCl 50 mM). The IC50 generated in the binding assay was corrected for tracer concentration and affinity of the tracer to derive at the affinity (K) of the test compounds. […] Data are analyzed and graphed on Graphpad Prism 5.

Row | SMILES | IC50 (P2X purinoceptor 7 [1]) | Ki (P2X purinoceptor 7 [2])
1 | Cc1cccc(C(=O)NN)n1 [US10053463, 13] | 1 nM | 1.4 nM
2 | NNC(=O)c1cccc(C(F)(F)F)n1 [US10053463, 16] | 0.7 nM | 1.6 nM
